Assay results from US20260384421A1, “NOVEL COMPOUNDS THAT CAN BE USED AS THERAPEUTIC AGENTS” (published 2026).
Like-named read-outs stand apart in the source and are kept apart here.

Assays:
BHY cells = test: alamarBlue proliferation assay with BHY cells; details: read-out: Activity on BHY: IC50, DMEM medium, 10% FBS
From the text: (§1) These hyperproliferative processes can be benign or malignant and include hyperplasia, neoplasia, cancer and pre-cancerous lesions, and metastases. The antiproliferative activities of compounds falling under general formula (I) were investigated on human primary epidermal keratinocytes (HPEK) and human, murine and canine cell lines derived from hyperproliferative tissue or different cancer types, including MDA-MB-231, ZR-75-30, HCC-1395, HCC-1937, and T-47D all originating from cancer of the breast, JURKAT, RPMI-8402, LOUCY, TANQUE, REC-1, HL-60, NB-4 all originating from different types of blood cancer including lymphoma and leukemia of T-cells, B-cells and myeloid cells, TT originating from cancer of the neuroendocrine system, HeLa originating from cancer of the cervix, 23132/87, SW-948, and HCT-116 all originating from cancer of the gastrointestinal tract including stomach and colon, BHY originating from cancer of the mucosal epithelium, A-431 originating from cancer of the skin, HEP-G2 originating from cancer of the liver, NCI-H460 and A-549 both originating from cancer of the lung, PANC-1 originating from cancer of the pancreas, U-87 MG originating from cancer of the brain, A-375 and RVH-421 both originating from cancer of melanocytes, SW-1353 originating from cancer of bone-derived chondrocytes, C2C12 a mouse cell line originating from hyperproliferative muscle progenitor cells, LL/2 a mouse cell line originating from cancer of the lung, CF21.T a dog cell line originating from cancer of the connective tissue. To this end, according cells were seeded into 96-well plates (CORNING #3598) suitable for fluorescence assays at following initial cell numbers: 1000 cells per well for HPEK; 3000 cells per well for MDA-MB-231, 8000 cells per well for ZR-75-30, 1500 cells per well for HCC-1395, 1500 cells per well for HCC-1937, 3000 cells per well for T-47D, 1500 cells per well for JURKAT, 5000 cells per well for RPMI-8402, 9000 cells per well for LOUCY, 1500 cells per well for TANQUE, 9000 cells per well for REC-1, 1000 cells per well for HL-60, 1000 cells per well for NB-4, 9000 cells per well for TT, 2000 cells per well for HeLa, 2000 cells per well for 23132/87, 9000 cells per well for SW-948, 700 cells per well for HCT-116, 1500 cells per well for BHY, 700 cells per well for A-431, 1500 cells per well for HEP-G2, 500 cells per well for NCI-H460, 1000 cells per well for A-549, 1500 cells per well for PANC-1, 2500 cells per well for U-87 MG, 700 cells per well for A-375, 1500 cells per well for RVH-421, 2000 cells per well for SW-1353, 500 cells per well for C2C12, 500 cells per well for LL/2, and 3000 cells per well for CF21.T. In a volume of 90 μL per well of culture medium the cells were treated with compounds at indicated final concentrations by adding 10 μL per well of 10× compound working solutions from 1:100 pre-diluted 1000× compound DMSO stock-solutions in H2O (Water For Injection, WFI, Fisher Scientific, Gibco™ #A12873) or with the empty carrier DMSO (AppliChem, #A3672) at 0.1% v/v as control yielding a final volume of 100 μL per well. At day 5 after starting the treatments the cells were subjected to the alamarBlue® Proliferation Assay (Bio-Rad Serotec GmbH, BUF012B) according to the protocol of the manufacturer. The readout was taken with a multi-well plate-reader (Tecan Spark®) in the fluorescence mode with applying a filter for excitation at 560 nm (band width 10 nm) and for emission at 590 nm (band width 10 nm). Treatment for maximum proliferation inhibition with the commercial cytotoxic compound (S)-(+)-camptothecin (Fluorochem #M01564) at a concentration of 10 μM was included on each plate for assay quality control. Some of the test compounds of the present invention may have been obtained and applied as their salt forms.
(§2) The assays were performed in duplicate or more replicates of independent single experiments each containing a three- to six-fold replicate for every condition. […]

HPEKp cells = test: proliferation assay with human epidermal keratinocyte progenitors (HPEKp), selectivity versus MDA-MB-231
From the text: as §1, §2

TANQUE cells = test: alamarBlue proliferation assay with TANQUE cells; details: read-out: Activity on TANOUE: IC50, RPMI 1640 medium, 10% FBS
From the text: as §1, §2

A-549 cells = test: alamarBlue proliferation assay with A-549 cells; details: read-out: Activity on A-549: IC50, DMEM medium, 10% FBS
From the text: as §1, §2

[1] = test system: mitochondrial transmembrane potential Δψm in A-549 cells; test: mitochondrial activity assay (TMRE staining, mitochondrial transmembrane potential) on A-549 cells; details: A-549 cells, compounds at 10 μM, 2 h 40 min, TMRE staining, relative to DMSO = 1.0
Procedure: A decrease in mitochondrial function can be assessed by the relative quantification of the mitochondrial transmembrane potential Δψm. The Adm-decreasing activities of compounds falling under general formula (I) were investigated with tetramethylrhodamine ethyl ester (TMRE) staining on A-549 cells. Access and cultivation method of A-549 cells are as described above. To this end, according cells were seeded into 96-well plates suitable for fluorescence assays (Greiner Bio-One, #655090) at a cell number of 45'000 cells per well. Cells were incubated over night at 37 °C and 5% CO2. This was followed by a complete medium change with 100 μL per well of fresh culture medium pre-warmed to 37 °C. Cells were further incubated at 37 °C and 5% CO2 for three hours. Then the cells were treated with compounds at 10 μM final concentration by adding 100 μL per well of a 2× compound working solution of 1:50 pre-diluted compound DMSO stock-solutions in Hank's Balanced Salt Solution (HBSS, Fisher Scientific, Gibco™ #14025). Cells were incubated for 2 hours and 40 minutes at 37 °C and 5% CO2. Then cells were treated with TMRE (AAT-Bioquest, #22220) at 300 nM final concentration by adding 20 μL per well of a 10×TMRE working solution from a 1:5 pre-diluted TMRE DMSO stock-solution in H2O (Water For Injection, WFI, Fisher Scientific, Gibco™ #A12873). Cells were incubated for further 20 minutes at room temperature in the dark, gently shaking on an orbital shaker (IKA, MTS 2/4 Digital Shaker, shaking at 300 rpm). Extracellular TMRE signal was quenched by adding 20 μL per well of a 1.6 mM solution of Brilliant Black BN (Carl Roth, #7643) in H2O. Cells were further incubated for 60 min at room temperature. Then the readout was taken with a multi-well plate-reader (Tecan Spark®) in the fluorescence mode using a filter for excitation at 535 nm (band width 25 nm) and for emission at 595 nm (band width 35 nm) without plate lid. Treatment for strong decrease in Δψm with the commercial mitochondrial uncoupler compound 2,4-dinitrophenol (DNP, Sigma Aldrich-Merck #34334) at a final concentration of 50 μM was included on every plate for assay quality control.
The assays were performed in two independent biological replicates, each containing three technical replicates for every condition. For every individual plate, the measured fluorescence intensity values of the conditions with compound treatment were normalized against the corresponding equally weighted arithmetic mean of the fluorescence intensity values of the three DMSO treated control wells in order to obtain the relative values to a reference level of 1.0.
The weighted arithmetic mean and the combined standard deviation as defined in the present invention was calculated for each compound as described above. The DNP control decreased the relative mitochondrial transmembrane potential Δψm in A-549 cells to 0.2.

HCT-116 cells = test: alamarBlue proliferation assay with HCT-116 cells; details: read-out: Activity on HCT-116: IC50, McCoy's 5A medium, 10% FBS
From the text: as §1, §2

HEP-G2 cells = test: alamarBlue proliferation assay with HEP-G2 cells; details: read-out: Activity on HEP-G2: IC50, RPMI 1640 medium, 10% FBS
From the text: as §1, §2

LL/2 cells = test: alamarBlue proliferation assay with LL/2 cells; details: read-out: Activity on LL/2: IC50; LL/2 murine Lewis lung carcinoma cells, DMEM medium, 10% FBS
From the text: as §1, §2

NB-4 cells = test: alamarBlue proliferation assay with NB-4 cells; details: read-out: Activity on NB-4: IC50, RPMI 1640 medium, 10% FBS
From the text: as §1, §2

MDA-MB-231 cells = test: alamarBlue proliferation assay with MDA-MB-231 cells (glucose-free Leibovitz's L-15 medium)
From the text: as §1, §2

SW-1353 cells = test: alamarBlue proliferation assay with SW-1353 cells (glucose-free L-15 medium); details: read-out: Activity on SW-1353: IC50, Leibovitz's L-15 medium, 10% FBS, 0% CO2
From the text: as §1, §2

RVH-421 cells = test: alamarBlue proliferation assay with RVH-421 cells (glucose-free L-15 medium); details: read-out: Activity on RVH-421: IC50, Leibovitz's L-15 medium, 10% FBS, 0% CO2
From the text: as §1, §2

A-431 cells = test: alamarBlue proliferation assay with A-431 cells; details: read-out: Activity on A-431: IC50, DMEM medium, 10% FBS
From the text: as §1, §2

[2] = read-out: Activity (HPEK), HPEK cells (HPEKp), antiproliferative activity, class by IC50
[3] = read-out: Activity (MDA), MDA-MB-231 cells, antiproliferative activity, class by IC50
[4] = read-out: Activity on MDA-MB-231 (IC50), glucose-free Leibovitz's L-15, 10% FBS, day 5, alamarBlue
[5] = read-out: Activity (HPEK): antiproliferative activity on HPEK cells, IC50 category, HPEK cells cultivated in CnT-Prime medium
[6] = read-out: Activity (MDA): antiproliferative activity on MDA-MB-231 cells, IC50 category, MDA-MB-231 cells cultivated in glucose-free Leibovitz's L-15 medium

IC50 (HPEKp cells; [2])	IC50 (A-549 cells)	IC50 (HCT-116 cells)	IC50 (HEP-G2 cells)	IC50 (MDA-MB-231 cells; [3])	IC50 (MDA-MB-231 cells; [4])	IC50 (HPEKp cells; [5])	IC50 (SW-1353 cells)	IC50 (MDA-MB-231 cells; [6])	IC50 (A-431 cells)	SMILES	IC50 (BHY cells)	IC50 (TANQUE cells)	Activity: relative mitochondrial transmembrane potential Δψm [1]	IC50 (LL/2 cells)	IC50 (NB-4 cells)	IC50 (RVH-421 cells)
< 10000 nM	≤ 200 nM	≤ 200 nM	≤ 200 nM	< 1000 nM	≤ 200 nM					COC1CCC(c2ccc(Oc3ccc(C(=O)N4CCN(Cc5ccc(Cl)nc5)CC4)nc3)c(CO)c2)CC1 (stereo not drawn)	≤ 200 nM	≤ 200 nM	Δψm ≤0.7	≤ 1000 nM	≤ 200 nM	
	≤ 200 nM	≤ 200 nM	≤ 200 nM							O=C(c1ccc(Oc2ccc(C3CCCCC3)cc2CO)cn1)N1CCN(Cc2ccc(S(F)(F)(F)(F)F)cc2)CC1	≤ 200 nM	≤ 200 nM	Δψm ≤0.7	≤ 200 nM	≤ 1000 nM	
< 10000 nM	≤ 200 nM	≤ 200 nM	≤ 200 nM	< 1000 nM	≤ 200 nM					O=C(c1ccc(Oc2ccc(C3CCC(CO)CC3)cc2CO)cc1)N1CCN(Cc2ccc(Cl)cc2)CC1 (stereo not drawn)	≤ 200 nM	≤ 200 nM	Δψm ≤0.7	≤ 1000 nM	≤ 200 nM	

The next lines start with the molecule.

SMILES	IC50 (HPEKp cells; [2])	IC50 (A-549 cells)	IC50 (HCT-116 cells)	IC50 (HEP-G2 cells)	IC50 (MDA-MB-231 cells; [3])	IC50 (MDA-MB-231 cells; [4])	IC50 (HPEKp cells; [5])	IC50 (SW-1353 cells)	IC50 (MDA-MB-231 cells; [6])	IC50 (A-431 cells)	IC50 (BHY cells)	IC50 (TANQUE cells)	Activity: relative mitochondrial transmembrane potential Δψm [1]	IC50 (LL/2 cells)	IC50 (NB-4 cells)	IC50 (RVH-421 cells)
CC(=O)Nc1ccc(CN2CCN(C(=O)c3ccc(Oc4ccc(C5CCC6(CC5)OCCO6)cc4CO)cc3)CC2)cc1		≤ 200 nM	≤ 200 nM			≤ 200 nM	< 10000 nM	≤ 200 nM	< 1000 nM		≤ 200 nM	≤ 1000 nM	Δψm ≤0.7	≤ 5000 nM	≤ 1000 nM	
COc1ccc(CN2CC3(C2)CN(C(=O)c2ccc(Oc4ccc(C5CCC6(CC5)OCCO6)cc4CO)cc2)C3)cc1		≤ 20000 nM				≤ 5000 nM	< 10000 nM	≤ 5000 nM	< 1000 nM							
CC(=O)N(c1ccc(C(=O)N2CCN(Cc3ccccc3)CC2)cc1)c1ccc(C2CCC3(CC2)OCCO3)cc1						≤ 20000 nM										≤ 20000 nM
C#CCN1CCN(C(=O)c2ccc(Oc3ccc(C4CCC5(CC4)N=N5)cc3CO)cc2)CC1				≤ 20000 nM		≤ 5000 nM	> 10000 nM		< 5000 nM	≤ 20000 nM						≤ 5000 nM
O=C(c1ccc(Oc2ccc(C3CCC4(CCCCO4)CC3)cc2CO)cc1)N1CCN(Cc2ccccc2)CC1 (stereo not drawn)		≤ 200 nM	≤ 200 nM			≤ 200 nM		≤ 200 nM			≤ 200 nM	≤ 200 nM	Δψm ≤0.7	≤ 5000 nM	≤ 200 nM	
Cc1ccc(S(=O)(=O)N2CCN(C(=O)c3ccc(Oc4ccc(C5CCC6(CC5)OCCO6)cc4CO)cc3)CC2)cc1	> 10000 nM	≤ 5000 nM			< 5000 nM	≤ 5000 nM		≤ 5000 nM								
O=C(c1ccc(Oc2ccc(C3CCC4(CC3)OCCO4)cc2CO)cc1)N1CCN(S(=O)(=O)c2ccc(F)cc2)CC1	> 10000 nM	≤ 20000 nM			< 1000 nM	≤ 5000 nM		≤ 5000 nM								
O=C1CCC(c2ccc(Oc3ccc(C(=O)N4CCN(Cc5ccc(Cl)cc5)CC4)cc3)c(CO)c2)CC1	< 10000 nM	≤ 200 nM	≤ 200 nM	≤ 200 nM	< 5000 nM	≤ 200 nM					≤ 200 nM	≤ 200 nM	Δψm ≤0.7	≤ 1000 nM	≤ 200 nM	
